Data on 5 molecules can be found in US20250115677A1, “Anti-CEA Antibody Drug Conjugates and Methods of Use” (BeiGene Switzerland GmbH, priority 2022, published 2025).

Data set [1] is described as follows: Single-dose PK in non-tumor-bearing mice. The conditions noted are these: single dose 3 mg/kg i.v., Balb/c nude mice.
The conditions of data set [2]: after 336 hours of incubation.
Data set [3] relates to MKN-45 (CEA high expression) tumors. The data set is described as follows: Cell-line derived xenograft (CDX) model, MKN-45. It is filed as in vivo, NCG mice. The conditions noted are these: MKN-45 CDX. Here is the method:
(§1) Cell-line derived xenograft (CDX) models using MKN-45 (CEA high expression) (gastric adenocarcinoma), SW-1463 (CEA moderate) (rectal adenocarcinoma), and NCI-H2122 (CEA low) (lung adenocarcinoma) were generated as described below.
(§2) Cells were cultured in RPMI-1640 medium, supplemented with 10% (v/v) fetal bovine serum, 100 U/ml penicillin, and 100 μg/mL streptomycin. On the day of implantation, cells were collected and re-suspended in cold (4° C.) serum-free RPMI-1640 medium. Cell density was adjusted to 2 (MKN-45), 1.5 (SW1463), or 4 (NCI-H2122)×10^7 cells/mL, and the cells were placed on ice prior to inoculation.
(§3) Six- to eight-week-old female mice were purchased and housed in ventilated cages, given food and water ad libitum, and allowed to acclimate for approximately 1 week prior to inoculation. MKN-45, SW-1463, and NCI-H2122 tumors were induced on the right flank by a subcutaneous injection of 2.0 (MKN-45), 3.0 (SW1463), or 8.0 (NCI-H2122)×10^6 cells in NCG, NCG, and Balb/c nude mice, respectively.
(§4) Experiments were performed approximately 2-3 weeks following injection of the cancer cells. For tumor volume measurements, all tumors were measured with calipers and tumor volumes were calculated using the formula V=0.5 (a×b^2), in which “a” is the tumor length and “b” is the tumor width and/or height. […] Animal body weight and tumor volume were measured twice weekly. Data is presented as mean tumor volume f standard error of the mean (SEM). Tumor growth inhibition (TGI) was calculated using the following formula:
(§5) treated Tt=mean tumor volume of a dosing group on Day t treated T0=mean tumor volume of a dosing group on Day 0 vehicle Tt=mean tumor volume of vehicle group on Day t vehicle T0=mean tumor volume of vehicle group on Day 0

The conditions of data set [4]: after 336 hours of incubation. This is another data set of the same source.
Another data set deals with MDA-MB-231 cell line. Kind of data set: ADC direct cellular killing assay, MDA-MB-231. The following applies: 6 days incubation. It is filed as cell-based, human. As for the experimental part:
At Day 0, cells were harvested with 0.25% Trypsin-EDTA, plated at 5,000 cells/well (MKN45 or Ls174T) or 2,000 cells/well (NCI-H2122 or MDA-MB-231) in 96-well plates (655090, Greiner), and incubated at 37° C., 5% CO2 overnight. At Day 1, ADCs were added (5× dilution) into plates. The cell and ADC mixture was incubated at 37° C., 5% CO2 for 6 days. Survival cell signaling was collected at Day 6 with 100 μL of detection reagent (G7573, Promega®); the signal was read by Tecan Spark*. Data were analyzed by GraphPad Prism 9.0.0. All of the killing concentrations were duplicated or triplicated. Results are presented for each of MKN45 (Table 22 and FIG. 17), NCI-H2122 (Table 23 and FIG. 18), Ls174T (Table 24 and FIG. 19), and MDA-MB0231 (Table 25 and FIG. 20) cells.

Data set [5] deals with human patient-derived gastric cancer xenograft. The data set is described as follows: Human patient-derived gastric cancer xenograft (PDX) model. It is filed as in vivo, mice. The following applies: for TGI (%) at T24: treatment Day 24, gastric cancer PDX; for tumor growth inhibition (TGI) rate: treatment day 24. As for the experimental part:
as §4, §5
All animals tolerated treatment well with no significant body weight decrease or abnormal clinical observations.
A general note: Xenograft models place foreign cells or tissue in a host animal.

Data set [6] in a line: In vivo DAR quantification by LC-MS. The following applies: single i.v. dose 3 mg/kg, Balb/c nude mice, serum. As for the experimental part: A serum sample (from Balb/c nude mice treated with a single i.v. dose of ADC at 3 mg/k, n=3 per group) was processed into payload-conjugated peptides from the heavy chain (HC) and light chain (LC) of the ADC. DAR mass spectra were analyzed to calculate average DAR of each chain, and average DAR of the intact ADC was calculated using the following formula: DAR=(DAR(LC)+DAR(HC))×2.

Data set [7] deals with NCI-H2122 (CEA low) tumors. The data set is described as follows: Cell-line derived xenograft (CDX) model, NCI-H2122. It is filed as in vivo, Balb/c nude mice. Here is the method: as §1, §2, §3, §4, §5
In data set [8] the test system is SW-1463 (CEA moderate) tumors. Kind of data set: Cell-line derived xenograft (CDX) model, SW-1463. It is filed as in vivo, NCG mice. The conditions noted are these: SW-1463 CDX. As for the experimental part:
as §1, §2, §3, §4, §5

Broadly, the EC50 is the concentration needed to bring the measured effect to its halfway point.

B1: BGA9962 (conjugate)
heavy: QVQLVQSGAEVKKPGASVKVSCKASGYIFTSYYLHWVRQAPGQGLEWIGYINPQTGKTSYAQKFQGRVTMTRDTSTSTVYMELSSLRSEDTAVYYCAREYGNYNYPLDYWGQGTLVTVSSASTKGPSVFPLAPSSKSTSGGTAALGCLVKDYFPEPVTVSWNSGALTSGVHTFPAVLQSSGLYSLSSVVTVPSSSLGTQTYICNVNHKPSNTKVDKKV[… human IgG1 Fc …]
light: DIQMTQSPSSLSASVGDRVTITCRASENQYGYLAWYQQKPGKVPKLLIYNYKNLVEGVPSRFSGSGSGTDFTLTISSLQPEDVATYYCQHHLGTPYTFGQGTKVEIKRTVAAPSVFIFPPSDEQLKSGTASVVCLLNNFYPREAKVQWKVDNALQSGNSQESVTEQDSKDSTYSLSSTLTLSKADYEKHKVYACEVTHQGLSSPVTKSFNRGEC
As for B1, in data set [1], the “separation between TAb (total antibody) and ADC concentration; DAR over time” value is given as “stable DAR over time”. Besides, the “serum-free payload in plasma” value in data set [1] is given as “lower serum-free payload in plasma compared to BGA7650”. In data set [1] (n=3), the “pharmacokinetic (PK) profile” value is given as “strong pharmacokinetic (PK) profile”. Besides, the “stability in mouse plasma (DAR change)” value in data set [2] is reported as “no DAR change”. Besides, the anti-tumor efficacy result in data set [3] (2 mg/kg i.v.) was “superior anti-tumor efficacy compared to BGA7650 at 1.3 mg/kg and comparable efficacy to BGA7650 at 4 mg/kg”; in data set [3] (6 mg/kg i.v.) it was “significantly reduced tumor growth”; in data set [7] (2 mg/kg i.v.), “superior anti-tumor efficacy compared to BGA7650 at 1.3 mg/kg and comparable efficacy to BGA7650 at 4 mg/kg”; in data set [7] (6 mg/kg i.v.), “significantly reduced tumor growth”; in data set [8] (2 mg/kg i.v.) it was “superior anti-tumor efficacy compared to BGA7650 at 1.3 mg/kg and comparable efficacy to BGA7650 at 4 mg/kg”; in data set [8] (6 mg/kg i.v.), “significantly reduced tumor growth”. Also, the “tumor growth compared to the vehicle group” value in data set [3] (i.v.), in [7] (i.v.) and in data set [8] (i.v.) was “slowed tumor growth” throughout. Also, the “stability in human plasma (DAR change)” value in data set [4] is reported as “no DAR change”. The concentration giving a half-maximal response (EC50) in the data set with MDA-MB-231 cell line is 27 nM. For the same molecule, the “TGI (%) at T24” value in [5] (2 mg/kg single dose) was found to be 106%; in [5] (6 mg/kg single dose), 107%. The “tumor growth inhibition (TGI) rate” value in data set [5] (single dose 2 mg/kg) came out at 106%; in data set [5] (single dose 6 mg/kg) it was 107%. The “in vivo DAR over time” value in data set [6] was determined as 8.

B2: BGA2490 (conjugate)
heavy: B1 heavy
light: B1 light
In the data set with MDA-MB-231 cell line, B2 had a 50% effective concentration (EC50) of 21 nM. In other words, the double-digit nanomolar range.

B3: BGA7413 (conjugate)
heavy: B1 heavy
light: B1 light
With B3, in the data set with MDA-MB-231 cell line, the EC50 was 28 nM.

B4: BGA8357 (conjugate)
heavy: B1 heavy
light: B1 light
The molecule B4 returned a concentration for a half-maximal effect (EC50) in the data set with MDA-MB-231 cell line of 26 nM.

B5: BGA0084 (conjugate)
heavy: B1 heavy
light: B1 light
On to B5, for which, in the data set on MDA-MB-231 cell line, a half-maximal effect (EC50) was put at 25 nM.
